The list shows a part of the results, in another mix than the full data. The source made the active and inactive calls. Rule as the data show it: active = inhibition mostly above about 23% (no sharp cut-off); inactive = mostly below about 18%.

Chains of the proteins cited; added tags and fusions are not shown.
UniProt P47898, whole entry, looked up: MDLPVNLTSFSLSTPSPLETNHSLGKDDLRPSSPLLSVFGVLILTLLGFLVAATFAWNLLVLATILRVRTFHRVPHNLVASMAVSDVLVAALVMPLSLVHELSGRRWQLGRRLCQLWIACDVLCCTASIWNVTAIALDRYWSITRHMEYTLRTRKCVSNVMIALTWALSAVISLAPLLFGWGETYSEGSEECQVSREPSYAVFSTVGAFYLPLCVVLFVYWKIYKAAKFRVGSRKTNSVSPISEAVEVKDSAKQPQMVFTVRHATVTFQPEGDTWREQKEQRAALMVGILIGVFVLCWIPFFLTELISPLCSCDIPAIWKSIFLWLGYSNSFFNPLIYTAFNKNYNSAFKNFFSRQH

Experimental findings from PubChem BioAssay AID504634 (The Scripps Research Institute Molecular Screening Center, 2011) are described below.

For the experiment, the target named is 5-hydroxytryptamine receptor 5A (Homo sapiens) (UniProt P47898). Description: HTR5A inverse agonists in luminescence cell assay, primary screen, counter-screen for OPRM1-OPRD1 heterodimer inverse agonist project, full-deck HTS (AID 504634).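 Also: 0% = cells with DMSO and 100% = no-cell wells with DMSO.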 The settings on record: HTR5A cell line, inverse agonism, at 9.3 µM, hits give high values.
`Cc1ccc2c(c1)C1CN(C)CCC1N2C(=S)NC(=O)c1ccc(Br)cc1` (configuration not stated): the inhibition was inactive: 12.5%. With `CCc1cccc(C)c1NC(=O)Cn1c(NCCO)nc2ccccc21` the figure was inactive: 12.8%; with `CN(C)C(=O)c1cc([N+](=O)[O-])cc2c1-c1c(cc([N+](=O)[O-])cc1[N+](=O)[O-])C2=O`, inactive: 21.4%. The figure for `O=[N+]([O-])c1ccc2c(c1)nnn2O` is inactive: -5.29%; for `CC1CCCCN1C(=O)Cn1cnc2c1c(=O)n(C)c(=O)n2C` (configuration not stated) it is inactive: -9.91%; for `Cn1c(=O)c2c(ncn2CC(=O)N(Cc2ccccc2)c2ccccn2)n(C)c1=O` it is inactive: -5.44%. The figure for `Cc1ccc(C(=O)Nc2nc3ccccc3n2CCN2CCCC2)cc1` is inactive: -20.9%. On to `CCN(CC)CCn1c(NCc2ccc(C)o2)nc2ccccc21`, for which the inhibition was inactive: 16%. With `O=C(Nc1nc2ccccc2n1CCN1CCCC1)C1CCCCC1` the figure was inactive: -2.54%; with `CCC(C)NC(=O)Cn1c(COc2ccc(Cl)cc2Cl)nc2ccccc21` (configuration not stated), inactive: 5.21%; with `CCC(C)[C@H](NC(=O)N1CCn2c1nc1ccccc12)C(=O)NCc1ccc(OC)cc1` (some centres not stated), inactive: -19.9%. The figure for `Cn1c(=O)[nH]c(=O)c2c1ncn2CCN1CCOCC1` is inactive: 7.4%; for `CC(=O)Nc1nc2ccccc2n1CCN1CCOCC1` it is inactive: -19.3%; for `Cc1nc2ccccc2n1C1CC(=O)N(N(C)C)C1=O` (configuration not stated) it is inactive: 13%. With `CCOC(=O)C1=C(Cn2cnc3ccccc32)NC(=O)NC1c1ccc(OC)cc1` (configuration not stated) the figure was inactive: 14%; with `CC(=O)OCCNC(=O)Cn1cnc2c1c(=O)n(C)c(=O)n2C`, inactive: -11.7%.

`Cc1cccc(C)c1NC(=O)Cn1cnc2c(=O)n(C)c(=O)n(C)c21`: the inhibition is inactive: -7.67%.

Consider `CCCCNC(=O)Cn1c(=O)n(C)c2ccccc21`, for which the inhibition was inactive: -7.2%.

On to `O=C(Cn1cnc2c(NCc3ccccc3)ncnc21)NCCc1cc2ccccc2[nH]1`, for which the inhibition is inactive: 0.79%. The figure for `NC(=O)Nc1ccc([As](=O)(O)O)cc1` is inactive: 10.3%; for `O=C(Cn1cnc2ccccc21)N/N=C/c1cccc([N+](=O)[O-])c1` it is inactive: -1.83%; for `CC1Cc2ccccc2N1C(=O)CSc1nc2ccccc2n1CC(=O)N1CCOCC1` (configuration not stated) it is inactive: -17.7%. For the compound `Nc1nc2ccccc2n1CCN1CCCC1`, the inhibition is inactive: -21.9%. The figure for `CC(C)NC(=S)N1CCn2c(nc3ccccc32)C1` is inactive: -4.34%; for `O=C(CCCCCNC(=O)N1CCn2c1nc1ccccc12)NCc1ccc(Cl)cc1` it is inactive: -7.3%. For `Cc1nn2c3ccccc3n(CCN3CCCCC3)c2nc1=O`, the inhibition was inactive: 16.5%. Take `Cc1ccc2c(c1)C1CN(C)CCC1N2S(=O)(=O)c1ccc(C#N)cc1` (configuration not stated): the inhibition was inactive: 6.25%.
